Source: US20220089578A1, “COMPOUNDS AS GLP-1R AGONISTS” (Terns Pharmaceuticals, Inc., priority 2020, published 2022)

By UniProt entry, the sequences of proteins in these tests, tags left out. Residues count along the entry.
UniProt P43220, 24-463 limits assumed: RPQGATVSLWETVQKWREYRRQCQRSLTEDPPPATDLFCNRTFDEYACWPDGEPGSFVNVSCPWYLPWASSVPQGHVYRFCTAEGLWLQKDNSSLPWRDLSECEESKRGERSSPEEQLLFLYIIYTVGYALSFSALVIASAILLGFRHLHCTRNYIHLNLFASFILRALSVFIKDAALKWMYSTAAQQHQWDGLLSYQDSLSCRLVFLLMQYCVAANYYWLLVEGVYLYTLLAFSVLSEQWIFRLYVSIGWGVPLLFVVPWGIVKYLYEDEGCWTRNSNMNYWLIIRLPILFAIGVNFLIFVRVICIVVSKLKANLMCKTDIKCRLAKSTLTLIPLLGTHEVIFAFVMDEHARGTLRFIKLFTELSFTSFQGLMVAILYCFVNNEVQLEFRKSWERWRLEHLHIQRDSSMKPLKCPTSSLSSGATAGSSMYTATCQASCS

Biological target: human GLP-1R (Homo sapiens, UniProt P43220)
Assay: GLP-1R Cell Assay 1: cAMP Hunter CHO-K1 GLP1R Gs cell line, HitHunter cAMP assay
Conditions: read-out: GLP-1R Cell Assay 1 EC50; Table 2; cAMP Hunter CHO-K1 GLP1R Gs cells; percent activity normalized to Exendin-4
Method: GLP-1R mediated agonist activity was determined using the cAMP Hunter CHO-K1 GLP1R Gs cell line (DiscoverX, cat# 95-0062C2), a stable CHO-K1 derived cell lines overexpressing naturally Gs coupled wild-type human GLP-1R (accession number: NM_002062.3). GLP-1R agonism in this cell line was detected by measuring cellular cAMP levels using the HitHunter cAMP assay kit (cat# 90-0075SM2), a homogenous, gain-of-signal competitive immune assay based on Enzyme Fragment Complementation (EFC) technology. In this system cellular cAMP competes with exogenous labeled cAMP (ED-cAMP) for binding to an anti-cAMP antibody. […] The luminescent signal is directly proportional to the amount of cellular cAMP.
For compound testing, cells were seeded in a total volume of 20 μL in white walled, 384-well microplates and incubated at 37° C. prior to compound testing. Prior to compound addition, cell culture media was removed by aspiration and replaced with 15 pt reagent buffer (2:1 HBSS/10 mM HEPES: cAMP XS+Ab reagent). […] Microplates were read on a PerkinElmer Envision instrument. Compound activity was analyzed using CBIS data analysis suite (ChemInnovation). Percent activity was calculated based on duplicate assay runs and normalized to the positive control Exendin-4, a GLP-1R peptide agonist, using the following formula: […]

O=C(O)c1ccc2nc(CN3CCC4(c5cccc(OCc6ccc(Cl)cc6F)n5)CC4C3)n(C[C@@H]3CCO3)c2c1 (stereo partly shown) showed an EC50 of 0.257 nM.
